Measured values from US20220193251A1, “CD30 TARGETING ANTIBODY DRUG CONJUGATES AND USES THEREOF” (Ludwig-Maximilians-Universitaet Muenchen, priority 2020, published 2022).

Assay: Storage of ADCs in mouse-plasma for 7 days at 37° C.
Type: in vitro ADME

B1: Bren. LCHC-2: Brentuximab with Tub-tag on light and heavy chains (SEQ ID NO: 11/12), 3-formyl-L-tyrosine, oxime-linked Payload 2, DAR 4 (conjugate)
heavy: QIQLQQSGPEVVKPGASVKISCKASGYTFTDYYITWVKQKPGQGLEWIGWIYPGSGNTKYNEKFKGKATLTVDTSSSTAFMQLSSLTSEDTAVYFCANYGNYWFAYWGQGTQVTVSAASTKGPSVFPLAPSSKSTSGGTAALGCLVKDYFPEPVTVSWNSGALTSGVHTFPAVLQSSGLYSLSSVVTVPSSSLGTQTYICNVNHKPSNTKVDKKV[human IgG1 Fc cut from this listing]VDSVEGEGEEEGEE
light: DIVLTQSPASLAVSLGQRATISCKASQSVDFDGDSYMNWYQQKPGQPPKVLIYAASNLESGIPARFSGSGSGTDFTLNIHPVEEEDAATYYCQQSNEDPWTFGGGTKLEIKRTVAAPSVFIFPPSDEQLKSGTASVVCLLNNFYPREAKVQWKVDNALQSGNSQESVTEQDSKDSTYSLSSTLTLSKADYEKHKVYACEVTHQGLSSPVTKSFNRGECGGGGSVDSVEGEGEEEGEE
modifications: 3-formyl-Tyr oxime Payload 2, DAR 4; Brentuximab heavy chain fused to TTL recognition sequence at C-terminus; Brentuximab light chain comprising TTL recognition sequence at C-terminus
Before incubation
  DAR before plasma incubation: 3.8
mouse-plasma, 7 days at 37° C.
  DARav after plasma incubation n = 2: 3.63
  Payload lost: 5%
